## Ab-14 heavy chain CDR variants: yeast mating affinities

The measurements come from Engelhart et al. 2022 (doi:10.1038/s41597-022-01779-4) through the FLAb antibody collection.

Target: peptide PDVDLGDISGINAS, taken from heptad repeat 2 (HR2) of SARS-CoV-2 spike.

Parent scFv Ab-14: VH joined to VL by the linker GGGGSGGGGSGGGGS. Changes lie in the heavy chain CDRs alone.
VH: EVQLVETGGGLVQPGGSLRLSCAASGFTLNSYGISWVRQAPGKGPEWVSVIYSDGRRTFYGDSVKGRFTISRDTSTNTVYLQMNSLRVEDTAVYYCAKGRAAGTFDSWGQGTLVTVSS
VL: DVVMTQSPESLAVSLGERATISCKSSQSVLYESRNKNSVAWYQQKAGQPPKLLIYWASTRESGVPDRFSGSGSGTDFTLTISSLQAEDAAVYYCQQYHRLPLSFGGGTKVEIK

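Variants in AAYL49 differ from the parent at up to three CDR positions; double and triple changes were sampled at random. Affinity was read by AlphaSeq, a pooled yeast mating assay with surface-displayed partners. Binding brings cells together so that they mate, and sequencing counts the barcode pairs among the diploids. The ratio of observed to expected reads was calibrated, replicate by replicate, on BCL2-family standards whose Kd was known from biolayer interferometry. Each pool was mated in three replicate cultures.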

Variants are written as CDR1, CDR2 and CDR3 of the heavy chain (limits as in the source). Parent: GFTLNSYGIS, VIYSDGRRTFYGDSVK, GRAAGTFDS.
This list gathers variants with a substitution at G61 (VH, numbered from residue 1).
The read-out is the apparent dissociation constant on a log10 scale (nM): the lower, the stronger.
"nd" marks a missing value. The strain was present, yet no cells mated with the target were sequenced in that replicate, which points to weak or no binding.

Variant GFSLNSYGIS / VIYSDGRRTFYADSVK / RRAAGTFDS gave 1.37, 1.53, 1.55 (controls 8 of 9). For GFTLNSYGIS / CIYSDGRRTFYPDSVK / GRMAGTFDS, the assay gave nd, nd, nd (controls 0 of 9). Variant GFTLNLYGIS / VIYSDGRRTFYMMSVK / GRAAGTFDS gave nd, nd, 4.59 (controls 3 of 9). Variant GFTLNSYGIS / VIYSDGRRTFYMDSVL / GRAAGTVDS gave nd, nd, nd (controls 1 of 9). For GFTLNSYGYS / VITSDGRRTFYLDSVK / GRAAGTFDS, the assay gave 3.65, 4.09, 3.43 (controls 6 of 9). Variant GFTLNSYGIS / VHYSDGRRTFYYDSVK / GRAAGTFCS gave nd, nd, nd (controls 0 of 9). Variant GFTLNSYGIS / VIYSDGLRTFYEDSVK / GRAAGTADS showed nd, nd, nd (controls 0 of 9). Variant GFTLNSYGVS / VIYSDGRRTFYIDSNK / GRAAGTFDS showed nd, nd, 5.33 (controls 2 of 9).

For GFTLNSYGIS / VIYSDGRRTFYVDSVK / GRNAGTFDS, the assay gave 1.34, 1.08, 1.35 (controls 0 of 9). Variant NFTLNSYGIS / VIYSDGRRTFYMDSVK / GRPAGTFDS showed 5.49, 3.60, 3.86 (controls 0 of 9). With GFTLNSYGIS / TIYSDGRRTFYTDSVK / GRAAGTDDS the result was nd, nd, 5.00 (controls 1 of 9). With GFTLNSYGIS / VIYSDIMRTFYLDSVK / GRAAGTFDS the result was nd, nd, nd (controls 1 of 9). Variant GFTLNSYGIS / VIYSDGARTFYWDSVK / GRAAGTFDS gave nd, nd, 5.17 (controls 1 of 9). Variant GFTLNSCGIS / VIYSDGRRHFYKDSVK / GRAAGTFDS gave 2.33, 2.49, 2.47 (controls 1 of 9). For GFTLNSYAIS / VIYSDGRRTFYHDSVK / GRSAGTFDS, the assay gave 3.48, nd, nd (controls 1 of 9). Variant GFTLNSYGIS / VIYSDGRRRFYHDSVK / GRAAGFFDS showed nd, 3.16, 3.78 (controls 0 of 9).

With GFFLNSYGIS / VIYSDGRRFFYTDSVK / GRAAGTFDS the result was 3.41, 2.36, 3.45 (controls 2 of 9). For GFTLNSYGIS / VIYSDWRRTFYADSVK / GRAHGTFDS, the assay gave nd, 5.32, nd (controls 1 of 9). With GFTWLSYGIS / VIYSDGRRTFYFDSVK / GRAAGTFDS the result was 5.11, 4.15, nd (controls 6 of 9). For GFTLNSYGIS / VIYSVGRRTFYNDSVK / GRAAGTDDS, the assay gave nd, nd, nd (controls 1 of 9). Variant GFTLHSYGIS / VIYSDGRRTFYFDSVK / GRAAGTFDS gave nd, 4.71, nd (controls 2 of 9). For GFTLNSYKIS / VIYSDGRRTFYCDSVK / GPAAGTFDS, the assay gave nd, 5.19, nd (controls 3 of 9). Variant GFTLFSYGIS / VIYSDGRRTFYRDSVK / GRLAGTFDS showed 1.70, 1.59, 1.69 (controls 1 of 9). Variant GWTLNSYGIS / VIYSDIRRTFYFDSVK / GRAAGTFDS gave 3.97, nd, 4.83 (controls 2 of 9).

Variant GFTLNSRGIS / VIYSDGRRTFYRDSVK / GRAAGTIDS showed 4.19, 5.45, 3.76 (controls 1 of 9). Variant GFTLNSYGIS / VIYSDGRRTFYADSVK / GRAAGTFDS showed 0.42, 0.62, 0.52 (controls 0 of 9). With GFTLNSYGPS / VIYIDGRRTFYNDSVK / GRAAGTFDS the result was 5.13, 3.00, 4.71 (controls 5 of 9). With GFTLNSYGIS / VIYSDGRRVFYHDSVK / GRAIGTFDS the result was 2.07, 2.01, 2.02 (controls 2 of 9). Variant GFTLNSYGIS / VIYSDGRRTFYWDSVK / GRASGTFDS gave nd, nd, 3.38 (controls 0 of 9). Variant DFTLNSYGIS / VIYSDGRRTFYPDSGK / GRAAGTFDS showed nd, nd, nd (controls 3 of 9). With GFTLNSVGIS / VIYSDGRRTMYRDSVK / GRAAGTFDS the result was nd, nd, nd (controls 0 of 9). Variant GFTLNSYGIS / VIYSDGRKTFYCDSVK / ARAAGTFDS showed nd, nd, nd (controls 2 of 9).

Variant GFTLNSYGIS / VIYSDGRRTFYQTSVK / GRAAGTFDS showed 1.76, 2.39, 2.25 (controls 0 of 9). Variant GFTLNSYGIN / VIYSDGRRTFYYDSVL / GRAAGTFDS gave nd, nd, nd (controls 0 of 9). For GFTLNSYGIS / VEYSDGRRTFYVDSVK / GRAAGTRDS, the assay gave nd, nd, nd (controls 0 of 9). Variant GFTLNSYGIS / VIYSDGRRTFYSDSVK / GRAAGTFDS showed 0.53, 0.70, 0.56 (controls 3 of 9). With GFTLSSYGIS / QIYSDGRRTFYCDSVK / GRAAGTFDS the result was nd, nd, nd (controls 2 of 9). With GFTLHSYGIS / VIYSDGRRTFYDDSVK / GRAAGTFDS the result was 1.19, 1.47, 1.12 (controls 0 of 9). For GFTLNSYGIS / VIYSYGRRTFRTDSVK / GRAAGTFDS, the assay gave nd, 3.88, 5.16 (controls 2 of 9). Variant GFTLNSYDIS / VIYSDARRTFYWDSVK / GRAAGTFDS gave nd, nd, nd (controls 0 of 9).

With DFTLNSYGIS / VIYSDGRRTVYHDSVK / GRAAGTFDS the result was nd, nd, nd (controls 0 of 9). Variant GFTLHSYGIS / VIYSDGRRTFYMFSVK / GRAAGTFDS showed 5.18, nd, nd (controls 0 of 9). Variant GFTLNSYGIS / VIYSDGRRTFKDDSVK / GRNAGTFDS showed nd, nd, nd (controls 1 of 9). Variant GFTLNSIGIS / VIYSDSRRTFYSDSVK / GRAAGTFDS showed nd, nd, nd (controls 0 of 9). For GFTLNSYGIS / VIYGDGRRTFYQDSVK / GRAAGTFGS, the assay gave nd, nd, nd (controls 0 of 9). For GFTLNSYGIS / VIYIDGRRTFYSDSVK / GRAAGTFDE, the assay gave nd, 3.17, nd (controls 3 of 9). For GITLNSYGIS / VIYSDGRRWFYNDSVK / GRAAGTFDS, the assay gave nd, nd, 3.73 (controls 1 of 9). Variant GFTLNSYGIS / VIYSDGRRTFYTWSVK / GRAAGTFDS gave 2.14, 2.18, 2.14 (controls 0 of 9).

With GFTLNSYGIS / VIYSDGRRTFYDESVV / GRAAGTFDS the result was 1.10, 1.29, 1.43 (controls 0 of 9). Variant GFTLNSYMIS / VIYSDGRRTFYNDSVK / GRAAGTFDG showed nd, 4.68, nd (controls 5 of 9). Variant GDTLNSYGIS / VIYSDGRRTFYDDSVY / GRAAGTFDS showed 1.89, 2.07, 1.99 (controls 1 of 9).

The 7 strongest on average among those seen in every replicate, once more:

CDR-H1,CDR-H2,CDR-H3,"log10 Kd, replicates",signal with controls
GFTLNSYGIS,VIYSDGRRTFYADSVK,GRAAGTFDS,"0.42, 0.62, 0.52",0 of 9
GFTLNSYGIS,VIYSDGRRTFYSDSVK,GRAAGTFDS,"0.53, 0.70, 0.56",3 of 9
GFTLNSYGIS,VIYSDGRRTFYVDSVK,GRNAGTFDS,"1.34, 1.08, 1.35",0 of 9
GFTLHSYGIS,VIYSDGRRTFYDDSVK,GRAAGTFDS,"1.19, 1.47, 1.12",0 of 9
GFTLNSYGIS,VIYSDGRRTFYDESVV,GRAAGTFDS,"1.10, 1.29, 1.43",0 of 9
GFSLNSYGIS,VIYSDGRRTFYADSVK,RRAAGTFDS,"1.37, 1.53, 1.55",8 of 9
GFTLFSYGIS,VIYSDGRRTFYRDSVK,GRLAGTFDS,"1.70, 1.59, 1.69",1 of 9

Empty control strains, which show no peptide, gave a signal in 15% of pairings with library AAYL49; the median was 4.06 and 95% of these signals were weaker than 2.83. No background was subtracted. For each scFv, signals with the empty controls are counted beside the result.